Article PMC6588435 (Cell chemical biology, 2019)

By UniProt entry, the sequences of proteins in these tests, tags left out. Where a name states a change or a piece, a line headed by the entry shows the natural chain unless it says otherwise.
UniProt P9WG57: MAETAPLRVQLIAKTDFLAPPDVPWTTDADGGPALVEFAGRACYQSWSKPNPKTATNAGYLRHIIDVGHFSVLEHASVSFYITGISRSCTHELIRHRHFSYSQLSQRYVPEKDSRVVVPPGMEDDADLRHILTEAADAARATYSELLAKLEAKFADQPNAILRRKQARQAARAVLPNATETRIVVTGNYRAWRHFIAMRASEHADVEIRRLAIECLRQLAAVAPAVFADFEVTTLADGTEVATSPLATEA

Target: Mtb FDTS (Mycobacterium tuberculosis, UniProt P9WG57)
Test: Mtb FDTS NADPH oxidation assay
Type: biochemical
Conditions: 200 µM

| SMILES | inhibition of NADPH oxidation activity of Mtb FDTS |
| --- | --- |
| Nc1nc(=O)c2nc(CNc3ccc(C(=O)NC(CCC(=O)O)C(=O)O)c(O)c3)cnc2[nH]1 (centres unmarked) [PAS-M, 2-[(4-{[(2-amino-4-oxo-1,4-dihydropteridin-6-yl)methyl]amino}-2-hydroxyphenyl)formamido] pentanedioic acid] | fully inhibiting |
| Nc1nc2c(c(=O)[nH]1)N1CN(c3ccc(C(=O)N[C@@H](CCC(=O)O)C(=O)O)cc3)CC1CN2 (some centres unmarked) [mTHF, 5,10-Methylenetetrahydrofolate] | 100% |
